By UniProt entry, the sequences of proteins in these tests, tags left out. Residues count along the entry.
UniProt P13612, 34-1032 limits assumed: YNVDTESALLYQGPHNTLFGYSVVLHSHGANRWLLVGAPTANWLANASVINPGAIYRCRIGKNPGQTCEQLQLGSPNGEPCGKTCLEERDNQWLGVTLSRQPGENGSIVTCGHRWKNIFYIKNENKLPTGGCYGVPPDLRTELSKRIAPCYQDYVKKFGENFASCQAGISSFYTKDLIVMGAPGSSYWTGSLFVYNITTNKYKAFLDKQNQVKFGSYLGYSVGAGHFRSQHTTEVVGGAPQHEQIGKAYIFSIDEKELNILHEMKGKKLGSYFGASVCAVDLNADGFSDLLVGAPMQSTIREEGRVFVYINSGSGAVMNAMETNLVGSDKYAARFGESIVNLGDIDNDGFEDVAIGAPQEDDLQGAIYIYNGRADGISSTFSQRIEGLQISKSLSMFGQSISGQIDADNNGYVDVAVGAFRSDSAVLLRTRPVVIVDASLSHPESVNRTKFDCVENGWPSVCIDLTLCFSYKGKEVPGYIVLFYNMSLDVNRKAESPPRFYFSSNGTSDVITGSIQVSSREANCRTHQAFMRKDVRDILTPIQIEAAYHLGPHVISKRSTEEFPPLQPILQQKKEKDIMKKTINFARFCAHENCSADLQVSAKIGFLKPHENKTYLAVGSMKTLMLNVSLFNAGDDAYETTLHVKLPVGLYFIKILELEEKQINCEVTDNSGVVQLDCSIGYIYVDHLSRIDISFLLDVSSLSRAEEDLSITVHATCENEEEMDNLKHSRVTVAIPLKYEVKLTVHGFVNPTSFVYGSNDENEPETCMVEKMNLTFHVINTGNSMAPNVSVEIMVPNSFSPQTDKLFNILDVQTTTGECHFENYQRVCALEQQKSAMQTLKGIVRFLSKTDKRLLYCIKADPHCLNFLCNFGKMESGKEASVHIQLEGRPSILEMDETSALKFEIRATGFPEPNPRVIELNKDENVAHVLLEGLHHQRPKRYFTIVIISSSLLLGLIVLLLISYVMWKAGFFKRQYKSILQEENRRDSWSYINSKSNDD
UniProt P26010, 20-798 limits assumed: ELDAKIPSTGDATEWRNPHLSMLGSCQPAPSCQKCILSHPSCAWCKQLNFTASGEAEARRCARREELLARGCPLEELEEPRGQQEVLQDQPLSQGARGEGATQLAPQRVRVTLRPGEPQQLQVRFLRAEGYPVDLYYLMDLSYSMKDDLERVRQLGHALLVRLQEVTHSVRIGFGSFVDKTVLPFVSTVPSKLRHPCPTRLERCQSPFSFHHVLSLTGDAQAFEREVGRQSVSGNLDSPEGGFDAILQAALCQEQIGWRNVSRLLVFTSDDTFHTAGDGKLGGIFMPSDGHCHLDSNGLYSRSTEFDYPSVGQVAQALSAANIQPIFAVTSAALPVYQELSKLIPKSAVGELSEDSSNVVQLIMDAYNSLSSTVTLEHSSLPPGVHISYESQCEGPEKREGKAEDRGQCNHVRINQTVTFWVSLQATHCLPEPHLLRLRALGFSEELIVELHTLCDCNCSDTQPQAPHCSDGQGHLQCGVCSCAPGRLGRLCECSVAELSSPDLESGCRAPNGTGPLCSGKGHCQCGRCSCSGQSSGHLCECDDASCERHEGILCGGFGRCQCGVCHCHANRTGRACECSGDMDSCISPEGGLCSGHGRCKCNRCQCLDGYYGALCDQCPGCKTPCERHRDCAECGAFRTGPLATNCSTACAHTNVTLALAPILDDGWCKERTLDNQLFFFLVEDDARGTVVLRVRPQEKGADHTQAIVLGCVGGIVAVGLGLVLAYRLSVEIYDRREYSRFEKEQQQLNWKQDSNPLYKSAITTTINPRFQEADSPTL
UniProt P05556, 21-798 limits assumed: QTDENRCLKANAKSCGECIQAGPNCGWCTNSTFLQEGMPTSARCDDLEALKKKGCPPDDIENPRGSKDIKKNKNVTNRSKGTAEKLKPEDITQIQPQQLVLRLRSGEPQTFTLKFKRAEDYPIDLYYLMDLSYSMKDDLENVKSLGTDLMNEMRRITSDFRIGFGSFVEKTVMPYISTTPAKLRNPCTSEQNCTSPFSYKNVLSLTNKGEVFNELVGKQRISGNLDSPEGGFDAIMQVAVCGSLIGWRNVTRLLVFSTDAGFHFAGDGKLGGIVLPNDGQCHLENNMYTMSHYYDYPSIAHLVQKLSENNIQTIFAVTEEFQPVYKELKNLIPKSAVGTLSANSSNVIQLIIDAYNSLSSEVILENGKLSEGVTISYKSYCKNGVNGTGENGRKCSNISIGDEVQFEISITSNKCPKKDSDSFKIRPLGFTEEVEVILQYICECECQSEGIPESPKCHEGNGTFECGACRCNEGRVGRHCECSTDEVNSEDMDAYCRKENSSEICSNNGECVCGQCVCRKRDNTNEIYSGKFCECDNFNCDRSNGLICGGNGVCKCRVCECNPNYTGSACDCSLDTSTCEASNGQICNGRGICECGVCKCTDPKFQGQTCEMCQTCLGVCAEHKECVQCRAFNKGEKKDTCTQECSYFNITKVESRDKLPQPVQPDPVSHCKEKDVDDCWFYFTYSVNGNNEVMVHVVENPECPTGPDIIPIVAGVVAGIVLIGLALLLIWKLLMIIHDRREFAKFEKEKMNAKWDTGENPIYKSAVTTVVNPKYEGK

In patent publication US20260274797A1, “PROPIONIC ACID DERIVATIVE AND USE THEREOF IN MEDICINE” (Xizang Haisco Pharmaceutical Co., Ltd., priority 2022, published 2026):

Tests used:
integrin α4β7 = integrin α4β7 (Homo sapiens, UniProt P13612+P26010); experiment: Integrin α4β7 cell adhesion assay (RPMI8866 cells on MAdCAM-1); assay type: cell-based; conditions: read-out: RPMI-8866 (α4β7)/MadCAM-1 IC50; RPMI8866 cells adhering to MAdCAM-1; α4β7-mediated cell adhesion
integrin α4β1 = integrin α4β1 (Homo sapiens, UniProt P05556+P13612); experiment: Integrin α4β1-mediated cell adhesion assay (Jurkat cells on VCAM); assay type: cell-based; conditions: for IC50: read-out: Jurkat (α4β1)/VCAM-1 IC50, Jurkat cells adhering to VCAM-1, α4β1-mediated cell adhesion; for α4β1/α4β7: selectivity ratio, Jurkat (α4β1)/VCAM-1 IC50 over RPMI-8866 (α4β7)/MadCAM-1 IC50
[1] = Pharmacokinetic test in mice; conditions: for CL: IV: 1 mg/kg; for AUC: PO: 10 mg/kg
[2] = Pharmacokinetic test in rats; conditions: for CL: IV: 1 mg/kg; for AUC: PO: […]
[3] = Test of stability in liver microsomes (monkey); conditions: 1 μM test compound, NADPH, 37° C.
[4] = Test of stability in liver microsomes (rat); conditions: 1 μM test compound, NADPH, 37° C.
[5] = Test of stability in liver microsomes (mouse); conditions: 1 μM test compound, NADPH, 37° C.

Cc1cc(F)cc(C)c1-c1c(F)c(C(CC(=O)O)NC(=O)[C@H](CC(C)C)n2nc(CCN3CC(F)C3)cc(C)c2=O)c(F)c2c1CCC2 (stereo partly shown)
IC50 (integrin α4β7): < 1 nM
IC50 (integrin α4β1): 90.7 nM
α4β1/α4β7 (integrin α4β1): >100

CCN(CC)CCc1cn([C@@H](CC(C)C)C(=O)NC(CC(=O)O)c2c(F)c3c(c(-c4c(C)cc(F)cc4C)c2F)CCC3)c(=O)cc1C(F)(F)F (stereo partly shown)
IC50 (integrin α4β7): < 0.5 nM
IC50 (integrin α4β1): > 50 nM
α4β1/α4β7 (integrin α4β1): 194

COc1cc(C)c(-c2c(F)c(C(CC(=O)O)NC(=O)[C@H](CC(C)C)n3cc(CCN4CCC4)c(C(F)(F)F)cc3=O)c(F)c3c2CCC3)c(C)c1 (stereo partly shown)
IC50 (integrin α4β7): < 0.5 nM
IC50 (integrin α4β1): > 300 nM
α4β1/α4β7 (integrin α4β1): 3651
CL [1]: 13.3 mL/min/kg
AUC [1]: 1259 ng·h/mL
CL [2]: 8.76 mL/min/kg
AUC [2]: 3084 ng·h/mL
Hepatic intrinsic clearance CLint(liver) [3]: 31.3 mL/min/kg
T1/2 [3]: 0.997 h
Test compound after 1 h incubation Remaining % (T = 60 min) [3]: 47.2%
Hepatic intrinsic clearance CLint(liver) [4]: 19.5 mL/min/kg
T1/2 [4]: 2.13 h
Test compound after 1 h incubation Remaining % (T = 60 min) [4]: 74.5%
Hepatic intrinsic clearance CLint(liver) [5]: <29.5 mL/min/kg
T1/2 [5]: >0.3 h
Test compound after 1 h incubation Remaining % (T = 60 min) [5]: 83.8%

[2H]C([2H])([2H])Oc1cc(C)c(-c2c(F)c(C(CC(=O)O)NC(=O)[C@H](CC(C)C)n3cc(CCN(C)C)c(C(F)(F)F)cc3=O)c(F)c3c2CCC3)c(C)c1 (stereo partly shown)
IC50 (integrin α4β7): < 0.5 nM

COc1cc(C)c(-c2c(F)c(C(CC(=O)O)NC(=O)C(CC(C)C)n3cc(CCN4CC(C)(F)C4)c(=O)n(C)c3=O)c(F)c3c2CCC3)c(C)c1 (stereo not shown)
IC50 (integrin α4β7): < 10 nM
IC50 (integrin α4β1): > 4000 nM
α4β1/α4β7 (integrin α4β1): >1200

Cc1cc(F)cc(C)c1-c1c(F)c(C(CC(=O)O)NC(=O)[C@H](CC(C)C)n2cc(CCN3CCC3)c(C(F)(F)F)cc2=O)c(F)c2c1CCC2 (stereo partly shown)
IC50 (integrin α4β7): ≤ 0.5 nM
IC50 (integrin α4β1): > 100 nM
α4β1/α4β7 (integrin α4β1): 240
CL [1]: 14.0 mL/min/kg
AUC [1]: 5501 ng·h/mL
F ([1]; PO: 10 mg/kg vs IV: 1 mg/kg): 45.9%
CL [2]: 8.84 mL/min/kg
AUC [2]: 3172 ng·h/mL
Hepatic intrinsic clearance CLint(liver) [3]: 99.2 mL/min/kg
T1/2 [3]: 0.315 h
Test compound after 1 h incubation Remaining % (T = 60 min) [3]: 11.6%
Hepatic intrinsic clearance CLint(liver) [4]: 15.1 mL/min/kg
T1/2 [4]: 2.75 h
Test compound after 1 h incubation Remaining % (T = 60 min) [4]: 77.3%
Hepatic intrinsic clearance CLint(liver) [5]: 34.6 mL/min/kg
T1/2 [5]: 2.65 h
Test compound after 1 h incubation Remaining % (T = 60 min) [5]: 80.8%
